Source: patent US20240376149A1, “Novel Modulators of GABABR1a” (VIB VZW, priority 2021, published 2024)

Chains of the proteins cited; added tags and fusions are not shown. Residues count along the entry.
UniProt Q9UBS5, 26-96: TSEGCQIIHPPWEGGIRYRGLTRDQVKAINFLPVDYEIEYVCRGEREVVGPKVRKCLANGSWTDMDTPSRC

Key:
[1] = biological target: T1, sushi domain 1 (SD1) of GABABR1a (Homo sapiens, UniProt Q9UBS5); test: Isothermal titration calorimetry (ITC) direct binding assay
T1 construct: The synthetic gene encoding for residues 26-96 of the Sushi1 protein was cloned into a pFloat-SUMO vector; His-SUMO (with 3C protease site) (N, cleaved yes); made in house; host or cells: E. coli BL21(DE3)
Description: In contrast to the FP assay, the isothermal titration calorimetry (ITC) assay is a direct binding assay.
For biophysical and structural biology purposes the Sushi1 protein was expressed in a bacterial expression system. The synthetic gene encoding for residues 26-96 of the Sushi1 protein was cloned into a pFloat-SUMO vector, generating a His-tagged SUMO-Sushi1 fusion protein. The construct also contained a 3C protease cleavage site to remove the His-SUMO-tag. The pFloat-SUMO-Sushi1 plasmid was transformed in BL21(DE3) cells and plated on kanamycin ([…]) containing LB agar plates. A small LB culture, supplemented with […] kanamycin, was inoculated with a single colony of BL21(DE3)(pFloat-SUMO-Sushi1) and grown overnight at 37° C. 1 liter LB cultures were subsequently inoculated with 20 ml of this preculture and grown at 37° C. until OD600 reached 0.8. At this point protein expression was induced using 0.5 mM isopropyl β-D-1-thiogalactopyranoside (IPTG). Cells were incubated further overnight at 20° C. and subsequently harvested by centrifugation (Beckman rotor 8.1000, 5000 rpm, 15 min, 4C). The pellet was resuspended in 20 mM Tris pH 7.5, 500 mM NaCl, 10 mM imidazole, 5 mM β-mercaptoethanol, 0.1 mg/mL 4-(2-aminoethyl) benzenesulfonyl fluoride hydrochloride (AEBSF), 1 μg/mL leupeptine, 50 μg/mL DNasel and 20 mM MgCl2. […]

[2] = biological target: T2, GABABR1a-SD1 (SD1-FITC-9mer complex) (Homo sapiens, UniProt Q9UBS5); test: Fluorescence polarization (FP) competition assay with FITC-9mer; format: binding; conditions: peptide at 50 μM; inhibition of FITC-9mer binding to SD1
T2 construct: The synthetic gene encoding for residues 26-96 of the Sushi1 protein was cloned into a pFloat-SUMO vector; His-SUMO (with 3C protease site) (N, cleaved yes); made in house; host or cells: E. coli BL21(DE3)
Method: Intrigued by the surprising results of the 5-mer, it was decided to set up a medium- to high-throughput screen to optimize the 5-mer sequence. Several assays were tested to find a reproducible, robust and cost-effective assay that is also suitable for high-throughput screening. A fluorescence polarization (FP) assay was selected. FP measurements are well-known for receptor binding assays. The assay is based on the rotational movement of fluorescently labelled molecules in solution. […] The FP assay was optimized using the FITC labelled sAPP 9-mer (FIG. 1).
To screen for GABABR1a binders using unlabelled test compounds, the assay was turned into a competition assay using FITC-9mer. […] To validate this inhibitor assay, the IC50 values were determined of the 17-mer, 9-mer, 5-mer as well as those from 3 negative controls: 10-mer, scrambled 17-mer and a scrambled 9-mer (FIG. 2).
To determine if the peptides of this application were able to disrupt the SD1-9-mer complex, each peptide (in single point or dose-response curve) tested was incubate with SD1 protein for 1 h at RT. After this initially incubation, FITC-9mer was added to the previous mix and incubated during 2 h at RT. The signal intensity was measure in an appropriate plate reader using the following settings: Number of flashes per well: 200; Excitation: F482-16; Dichroic filter: FLP 504; Emission A F530-40; Gain A: 738, Gain B: 736. The assay was conducted in a 384-well plate.

## CC[C@H](C)[C@H](NC(=O)[C@@H](N)CC(=O)O)C(=O)N[C@@H](Cc1c[nH]cn1)C(=O)N[C@@H](Cc1c[nH]c2ccccc12)C(=O)NCC(=O)O [VIB_P36, DIHWG]
[1]
  Kd: 18.5 µM
[2]
  inhibition at 50 µM: 25.5%
